# Measured values from US8846868B2, “Anti-AREG/HB-EGF antibodies and treatment” (Fusion Antibodies Limited, priority 2008, dated 2014).
# System: cell growth
# Test: Comparison of cross-specific antibody to Cetuximab, MTT cell viability
# Format: cell-based
# Settings: MTT 72 hrs
substance,measurement,setting,value
Cetuximab [C225],reduction in cell growth,"antibody alone, concentration recommended for C225 (20 ug/ml and 40 ug/ml)",no significant effect
same,reduction in cell growth in comparison to C225 and isotype control antibody,antibody in combination with cpt-11 5 μM,no effect
